This is an account of results in publication PMC10011731, “CLASP2 facilitates dynamic actin filament organization along the microtubule lattice” (Molecular Biology of the Cell, 2023).

The target in the experiment is F-actin (actin purified from chicken breast) (chicken, UniProt P68139 1-377). The experiment is described as follows: co-sedimentation; high-speed cosedimentation: F-actin 0, 0.5, 1, 2.5, 5 and 10 µM with 360 nM GFP-L-TOG2-S, 37°C for 15-30 min in general actin buffer; 184,000 x g, 20 min, 26°C; fraction in pellet by SDS-PAGE densitometry, Michaelis-Menten fit; without microtubules. The following applies: both partners purified.

B1: His-EGFP-L-TOG2-S (domain or fragment)
chain: SVDGNRPSSAASAFKVPAPKTSGNPANSARKPGSAGGPKVGGASKEGGAGAVDEDDFIKAFTDVPSIQIYSSRELEETLNKIREILSDDKHDWDQRANALKKIRSLLVAGAAQYDCFFQHLRLLDGALKLSAKDLRSQVVREACITVAHLSTVLGNKFDHGAEAIVPTLFNLVPNSAKVMATSGCAAIRFIIRHTHVPRLIPLITSNCTSKSVPVRRRSFEFLDLLLQEWQTHSLERHAAVLVETIKKGIHDADAEARVEARKTYMGLRNHFPGEAETLYNSLEPSYQKSLQTYLKSSGSVASLPQSDRSSSSSQESLNRPFSSKWSTANPSTVAGRVSAGSSKASSLPGSLQRSRSDIDVNAAAGAKAHHAAGQSVRSGRLGAGALNAGSYASLEDTSDKLDGTASEDGRVRAKLSAPLAGMGNAKADSRGRSRTKMVSQSQPGSRSGSPGRVLTTTALSTVSSGVQRVLVNSASAQKRSKIPRSQGCSREASPSRLSVARSSRIPRPSVSQGCSREASRESSRDTSPVRSFQPLASRHHSRSTGALYAPEVYGASGPGYGISQSS
modifications: N-terminal His-EGFP tag omitted. Exact limits are not printed here (cited: Aher et al. 2018). Start is set by convention at the linker preceding TOG2, after the isoform-specific N-terminus of the …
In turn, B1 came in with an equilibrium dissociation constant (Kd) of 1100 ± 600 nM.
